{"sequences": {"note": "By UniProt entry, the sequences of proteins in these tests, tags left out.", "UniProt P53779, whole entry, species assumed": "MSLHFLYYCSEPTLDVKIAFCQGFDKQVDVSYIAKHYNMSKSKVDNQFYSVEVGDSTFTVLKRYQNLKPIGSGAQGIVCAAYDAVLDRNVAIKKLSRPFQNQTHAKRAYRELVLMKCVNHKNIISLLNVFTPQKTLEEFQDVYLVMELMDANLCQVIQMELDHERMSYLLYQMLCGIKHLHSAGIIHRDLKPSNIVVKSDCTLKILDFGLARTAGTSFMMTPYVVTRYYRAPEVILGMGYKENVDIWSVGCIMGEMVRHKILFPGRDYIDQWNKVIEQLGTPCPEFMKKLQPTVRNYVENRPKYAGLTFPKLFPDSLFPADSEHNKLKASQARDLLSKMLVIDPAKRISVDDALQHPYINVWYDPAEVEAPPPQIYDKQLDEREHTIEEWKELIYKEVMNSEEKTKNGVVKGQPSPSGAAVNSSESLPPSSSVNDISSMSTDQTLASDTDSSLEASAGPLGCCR"}, "source": "patent US7335676B2", "about": "“Methods for treating inflammatory conditions or inhibiting JNK” (Signal Pharmaceuticals, LLC, priority 1999, dated 2008)", "molecular_target": "JNK3 (Homo sapiens, UniProt P53779)", "experiment": "JNK Assay (c-Jun phosphorylation), JNK3", "assay_type": "biochemical", "details": "c-Jun phosphorylation reduced to 50% of control; 11 μM ATP", "procedure": "To 10 μL of the test compound in 20% DMSO/80% dilution buffer consisting of 20 mM HEPES (pH 7.6), 0.1 mM EDTA, 2.5 mM magnesium chloride, 0.004% Triton×100, 2 μg/mL leupeptin, 20 mM β-glycerolphosphate, 0.1 mM sodium vanadate, and 2 mM DTT in water is added 30 μL of 50-200 ng His6-JNK1, JNK2 or JNK3 in the same dilution buffer. The mixture is preincubated for 30 minutes at room temperature. Sixty microliter of 10 μg GST-c-Jun(1·79) in assay buffer consisting of 20 mM HEPES (pH 7.6), 50 mM sodium chloride, 0.1 mM EDTA, 24 mM magnesium chloride, 1 mM DTT, 25 mM PNPP, 0.05% Triton×100, 11 μM ATP, and 0.5 μCi γ-32P ATP in water is added and the reaction is allowed to proceed for 1 hour at room temperature. The c-Jun phosphorylation is terminated by addition of 150 μL of 12.5% trichloroacetic acid. After 30 minutes, the precipitate is harvested onto a filter plate, diluted with 50 μL of the scintillation fluid and quantified by a counter. The IC50 values are calculated as the concentration of the test compound at which the c-Jun phosphorylation is reduced to 50% of the control value.", "data": [{"smiles": "O=C1c2ccccc2-c2n[nH]c3cccc1c23", "note": "[Compound 1, Anthra[1,9cd]pyrazol-6(2H)-one]", "values": [{"measurement": "IC50", "value": 0.15, "unit": "µM"}]}]}
